Reference: patent US11596691B2, “Photoswitchable HDAC inhibitors” (The General Hospital Corporation, priority 2013, dated 2023)

By UniProt entry, the sequences of proteins in these tests, tags left out. Where a name states a change or a piece, a line headed by the entry shows the natural chain unless it says otherwise.
UniProt O15379: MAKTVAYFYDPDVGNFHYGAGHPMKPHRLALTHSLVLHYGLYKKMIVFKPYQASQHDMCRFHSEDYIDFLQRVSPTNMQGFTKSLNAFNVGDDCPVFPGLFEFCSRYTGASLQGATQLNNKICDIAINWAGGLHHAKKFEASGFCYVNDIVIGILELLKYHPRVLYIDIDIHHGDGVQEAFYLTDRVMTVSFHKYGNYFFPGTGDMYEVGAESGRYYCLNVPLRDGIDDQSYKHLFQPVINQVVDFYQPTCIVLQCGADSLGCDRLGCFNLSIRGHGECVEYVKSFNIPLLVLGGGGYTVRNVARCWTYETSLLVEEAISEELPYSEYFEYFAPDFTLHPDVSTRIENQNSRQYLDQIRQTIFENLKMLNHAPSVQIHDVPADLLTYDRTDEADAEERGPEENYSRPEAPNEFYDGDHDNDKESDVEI

Target: T1, HDAC3 (Homo sapiens, UniProt O15379)
T1 construct: 40 μL of a stock solution of full-length HDAC protein at three times the desired final concentration
Assay: Light-dependent HDAC3 biochemical assay (acetyl-lysine tripeptide based on acH4K12)
Conditions: in the presence and absence of light
Description: Compounds were added to white 96-well plates containing 40 μL of HDAC assay buffer (50 mM HEPES, 100 mM KCl, 0.05% BSA, 0.001% Tween-20 at pH 7.4) by pin transfer. To the assay plate was added 40 μL of a stock solution of full-length HDAC protein at three times the desired final concentration. After addition the plate was centrifuged to mix the solution while removing air bubbles. […] After which, reads were taken every 15 minutes to follow the fluorogenic release of 7-amino-4-methylcoumarin from the substrate resulting from deacetylase and trypsin enzymatic activity. In between reads the LED excitation device was reaffixed on top of the plate ensuring maximum cis-isomer population. In parallel to this, a second plate was prepared identically and measured for activity but this plate was not excited by our device but rather was covered to prevent any ambient light from shining on the plate. Replicate pairs of plates were performed.

## O=C(CCCCCCC(=O)Nc1ccccc1)NO [SAHA, reference compound]
  inhibition of HDAC3 enzymatic activity: additional inhibition of HDAC3
